{"source": "paper PMC3173241", "about": "(The Journal of Experimental Medicine, 2011)", "binders": {"B1": {"name": "human ABIN1, GST at the N terminus and His6 at the C terminus (natural protein)", "chain": "MEGRGPYRIYDPGGSVPSGEASAAFERLVKENSRLKEKMQGIKMLGELLEESQMEATRLRQKAEELVKDNELLPPPSPSLGSFDPLAELTGKDSNVTASPTAPACPSDKPAPVQKPPSSGTSSEFEVVTPEEQNSPESSSHANAMALGPLPREDGNLMLHLQRLETTLSVCAEEPDHGQLFTHLGRMALEFNRLASKVHKNEQRTSILQTLCEQLRKENEALKAKLDKGLEQRDQAAERLREENLELKKLLMSNGNKEGASGRPGSPKMEGTGKKAVAGQQQASVTAGKVPEVVALGAAEKKVKMLEQQRSELLEVNKQWDQHFRSMKQQYEQKITELRQKLADLQKQVTDLEAEREQKQRDFDRKLLLAKSKIEMEETDKEQLTAEAKELRQKVKYLQDQLSPLTRQREYQEKEIQRLNKALEEALSIQTPPSSPPTAFGSPEGAGALLRKQELVTQNELLKQQVKIFEEDFQRERSDRERMNEEKEELKKQVEKLQAQVTLSNAQLKAFKDEEKAREALRQQKRKAKASGERYHVEPHPEHLCGAYPYAYPPMPAMVPHHGFEDWSQIRYPPPPMAMEHPPPLPNSRLFHLPEYTWRLPCGGVRNPNQSSQVMDPPTARPTEPESPKNDREGPQ"}}, "biological_target": "linear ubiquitin oligomer consisting of nine ubiquitins (UniProt P0CG48)", "assay": "pull-down"}
{"binder": "B1", "values": [{"measurement": "binding result", "result": "binds"}]}
